Data on 2 compounds can be found in patent US20160214996A1, “MACROCYCLIC COMPOUNDS FOR THE TREATMENT OF PROLIFERATIVE DISEASES” (CS Pharmasciences, Inc., priority 2013, published 2016).

Chains of the proteins cited; added tags and fusions are not shown. Lines headed by an entry give the natural chain unless they say otherwise; changes in a name come on top. Residues count along the entry.
UniProt Q9UM73, 19-1620 limits assumed: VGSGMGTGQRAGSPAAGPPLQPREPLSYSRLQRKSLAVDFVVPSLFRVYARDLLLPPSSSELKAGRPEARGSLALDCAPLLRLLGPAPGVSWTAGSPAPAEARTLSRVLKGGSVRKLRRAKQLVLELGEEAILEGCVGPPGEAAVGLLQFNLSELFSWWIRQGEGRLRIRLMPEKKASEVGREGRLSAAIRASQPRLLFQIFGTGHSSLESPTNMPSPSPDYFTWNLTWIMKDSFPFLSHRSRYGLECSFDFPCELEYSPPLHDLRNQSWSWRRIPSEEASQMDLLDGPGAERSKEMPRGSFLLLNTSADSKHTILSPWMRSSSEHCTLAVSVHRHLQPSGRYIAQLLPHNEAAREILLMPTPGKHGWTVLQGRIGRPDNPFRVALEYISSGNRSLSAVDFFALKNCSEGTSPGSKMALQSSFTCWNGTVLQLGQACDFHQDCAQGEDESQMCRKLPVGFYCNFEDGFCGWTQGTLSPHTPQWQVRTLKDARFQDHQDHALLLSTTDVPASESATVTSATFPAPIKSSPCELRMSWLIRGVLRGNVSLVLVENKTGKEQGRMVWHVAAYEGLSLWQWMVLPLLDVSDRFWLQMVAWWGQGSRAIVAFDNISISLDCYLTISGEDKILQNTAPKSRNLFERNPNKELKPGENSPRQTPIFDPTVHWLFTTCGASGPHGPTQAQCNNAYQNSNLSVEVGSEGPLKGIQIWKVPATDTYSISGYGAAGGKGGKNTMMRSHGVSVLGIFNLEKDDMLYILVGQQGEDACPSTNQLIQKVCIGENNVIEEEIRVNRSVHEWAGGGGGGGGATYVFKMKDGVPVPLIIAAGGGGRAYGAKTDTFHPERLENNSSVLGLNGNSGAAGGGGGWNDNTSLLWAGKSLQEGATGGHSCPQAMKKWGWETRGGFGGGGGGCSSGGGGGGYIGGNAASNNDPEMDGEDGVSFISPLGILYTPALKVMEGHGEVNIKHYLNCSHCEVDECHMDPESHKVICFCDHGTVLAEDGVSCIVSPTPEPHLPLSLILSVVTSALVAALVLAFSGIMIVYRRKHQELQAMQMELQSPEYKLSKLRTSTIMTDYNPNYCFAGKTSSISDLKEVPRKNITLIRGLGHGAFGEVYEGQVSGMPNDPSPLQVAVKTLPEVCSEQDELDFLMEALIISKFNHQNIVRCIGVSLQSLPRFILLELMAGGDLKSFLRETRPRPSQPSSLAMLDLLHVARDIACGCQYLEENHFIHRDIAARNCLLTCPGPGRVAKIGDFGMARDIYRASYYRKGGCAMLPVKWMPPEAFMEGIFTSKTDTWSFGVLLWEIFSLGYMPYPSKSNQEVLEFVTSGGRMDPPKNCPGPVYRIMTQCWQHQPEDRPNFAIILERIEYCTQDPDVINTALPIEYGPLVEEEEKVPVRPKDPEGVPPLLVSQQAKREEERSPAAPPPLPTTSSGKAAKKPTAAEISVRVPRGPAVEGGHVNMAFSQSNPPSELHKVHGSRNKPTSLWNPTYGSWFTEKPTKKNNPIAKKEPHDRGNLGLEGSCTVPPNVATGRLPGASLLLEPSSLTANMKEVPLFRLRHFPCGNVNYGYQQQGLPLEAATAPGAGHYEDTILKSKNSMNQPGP
UniProt Q9UM73, 19-1620 L1196M limits assumed: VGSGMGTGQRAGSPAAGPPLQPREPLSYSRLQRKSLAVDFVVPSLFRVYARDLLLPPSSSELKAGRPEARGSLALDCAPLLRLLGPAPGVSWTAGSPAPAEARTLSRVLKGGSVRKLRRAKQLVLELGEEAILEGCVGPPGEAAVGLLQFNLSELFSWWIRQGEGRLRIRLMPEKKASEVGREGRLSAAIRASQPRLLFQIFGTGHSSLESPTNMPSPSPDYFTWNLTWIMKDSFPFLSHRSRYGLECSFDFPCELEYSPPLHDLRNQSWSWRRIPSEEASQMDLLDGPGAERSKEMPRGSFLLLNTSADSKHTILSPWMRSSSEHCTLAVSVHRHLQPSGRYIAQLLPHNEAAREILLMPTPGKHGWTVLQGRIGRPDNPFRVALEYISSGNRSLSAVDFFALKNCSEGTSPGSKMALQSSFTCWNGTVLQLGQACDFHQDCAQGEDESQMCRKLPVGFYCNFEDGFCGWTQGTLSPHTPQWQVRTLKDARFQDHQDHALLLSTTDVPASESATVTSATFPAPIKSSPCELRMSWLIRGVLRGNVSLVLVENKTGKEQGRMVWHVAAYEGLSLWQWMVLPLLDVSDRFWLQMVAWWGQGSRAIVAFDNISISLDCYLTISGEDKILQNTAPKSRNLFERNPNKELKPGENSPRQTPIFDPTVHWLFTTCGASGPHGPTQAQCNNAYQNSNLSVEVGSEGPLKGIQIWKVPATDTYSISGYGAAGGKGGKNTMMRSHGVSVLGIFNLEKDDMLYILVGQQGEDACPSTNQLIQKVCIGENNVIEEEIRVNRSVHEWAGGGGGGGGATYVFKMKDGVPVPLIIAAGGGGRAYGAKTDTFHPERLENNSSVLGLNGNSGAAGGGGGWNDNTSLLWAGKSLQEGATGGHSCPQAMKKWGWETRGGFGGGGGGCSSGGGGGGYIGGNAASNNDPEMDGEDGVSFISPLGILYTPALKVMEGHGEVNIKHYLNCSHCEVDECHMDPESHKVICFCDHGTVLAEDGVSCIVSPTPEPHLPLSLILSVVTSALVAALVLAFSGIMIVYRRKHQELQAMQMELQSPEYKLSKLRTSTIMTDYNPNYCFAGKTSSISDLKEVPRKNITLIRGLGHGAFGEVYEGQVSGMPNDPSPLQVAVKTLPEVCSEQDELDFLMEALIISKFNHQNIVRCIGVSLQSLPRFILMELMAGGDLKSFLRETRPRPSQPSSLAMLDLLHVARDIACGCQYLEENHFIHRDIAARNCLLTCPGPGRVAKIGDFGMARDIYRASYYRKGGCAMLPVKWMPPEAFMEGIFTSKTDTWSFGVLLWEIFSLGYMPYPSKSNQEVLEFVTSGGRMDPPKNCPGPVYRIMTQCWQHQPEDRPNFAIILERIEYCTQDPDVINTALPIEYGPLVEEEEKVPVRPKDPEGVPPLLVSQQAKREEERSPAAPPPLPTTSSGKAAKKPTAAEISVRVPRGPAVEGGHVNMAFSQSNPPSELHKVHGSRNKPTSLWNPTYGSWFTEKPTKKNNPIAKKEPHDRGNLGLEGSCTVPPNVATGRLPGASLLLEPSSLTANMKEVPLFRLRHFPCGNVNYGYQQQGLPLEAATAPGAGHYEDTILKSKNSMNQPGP

The target in experiment [1] is ALK wild type (Homo sapiens, UniProt Q9UM73). Briefly: ALK wild type standard HTRF enzyme assay. In kind it is biochemical. The note with it: read-out: IC50 (nM) ALK_wt, 0.5 nM ALK wild type, 30 μM ATP, 90 minutes at room temperature.
The target in experiment [2] is ALK L1196M (Homo sapiens, UniProt Q9UM73, L1196M). Briefly: ALK L1196M standard HTRF enzyme assay. The experiment is classed as biochemical. The note with it: read-out: IC50 (nM) ALK_L1196M, 0.15 nM ALK L1196M, 30 μM ATP, 60 minutes at room temperature. A general note: In TR-FRET formats the signal depends on donor and acceptor labels being close together.

By IC50 is commonly meant the concentration that gives 50% inhibition. For the compound `CC1Oc2cc(cnc2N)-c2c(nn(C)c2C#N)OCCOc2ccc(F)cc21` (single isomer, unassigned) [Compound 13b], the IC50 in experiment [1] amounted to 2270 nM; in experiment [2], 4470 nM.

In the case of `CC1Oc2cc(cnc2N)-c2c(nn(C)c2C#N)OCCOc2ccc(F)cc21` (single isomer, unassigned) [Compound 13a], the IC50 stood at 1.4 nM in experiment [1] and 54 nM in experiment [2].
